{"source": "patent US20120082623A1", "about": "“SHH Regulation and Methods Thereof” (priority 2009, published 2012)", "origin": "cited, not measured here", "system": "ALS patients", "settings": "cited from earlier work"}
{"compound": "Nc1nc2ccc(OC(F)(F)F)cc2s1", "note": "[Riluzole]", "values": [{"measurement": "survival", "result": "prolongs survival in ALS patients for several months"}]}
